For the test, the target named is T1, 5-HT2A receptor (Homo sapiens, UniProt P28223).
T1 construct: expressed in transfected cells; host or cells: NIH3T3 cells, pSI expression vector
In words: R-SAT functional receptor assay. It is filed as cell-based. The method, then: The functional receptor assay, Receptor Selection and Amplification Technology (R-SAT), was used (with minor modifications from that previously described U.S. Pat. No. 5,707,798) to screen compounds for efficacy at the 5-HT2A receptor. Briefly, NIH3T3 cells were grown in 96 well tissue culture plates to 70-80% confluence. Cells were transfected for 12-16 hours with plasmid DNAs using superfect (Qiagen Inc.) as per manufacture's protocols. R-SAT's were generally performed with 50 ng/well of receptor and 20 ng/well of Beta-galactosidase plasmid DNA. All receptor and G-protein constructs used were in the pSI mammalian expression vector (Promega Inc) as described in U.S. Pat. No. 5,707,798. The 5HT2A receptor gene was amplified by nested PCR from brain cDNA using the oligodeoxynucleotides based on the published sequence (see Saltzman et. al. Biochem. Biophys. Res. Comm. 181:1469-78 (1991)). Large-scale transfections, cells were transfected for 12-16 hours, then trypsinized and frozen in DMSO. […] Media was then removed from the plates and marker gene activity was measured by the addition of the beta-galactosidase substrate ONPG (in PBS with 5% NP-40). The resulting colorimetric reaction was measured in a spectrophotometric plate reader (Titertek Inc.)at […]. All data were analyzed using the computer program XLFit (IDBSm). […]

Protein sequences, listed by entry. Tags and fused reporters are not part of them.
UniProt P28223, whole entry: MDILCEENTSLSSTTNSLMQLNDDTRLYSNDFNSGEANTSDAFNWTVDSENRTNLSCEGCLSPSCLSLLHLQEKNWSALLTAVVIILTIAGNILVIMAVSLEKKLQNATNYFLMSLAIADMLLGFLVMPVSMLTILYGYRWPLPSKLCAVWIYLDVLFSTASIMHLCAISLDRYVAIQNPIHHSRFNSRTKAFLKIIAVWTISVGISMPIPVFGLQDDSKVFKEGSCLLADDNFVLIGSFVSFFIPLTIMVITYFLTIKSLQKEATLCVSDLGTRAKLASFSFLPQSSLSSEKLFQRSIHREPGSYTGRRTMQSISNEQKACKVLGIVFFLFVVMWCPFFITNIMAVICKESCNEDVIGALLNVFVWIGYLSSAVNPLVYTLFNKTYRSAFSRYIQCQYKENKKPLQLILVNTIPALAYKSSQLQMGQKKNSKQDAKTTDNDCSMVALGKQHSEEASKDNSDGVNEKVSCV

SMILES strings stand for the structures. Counter-ions that a name gives are not always drawn.

The source of these data is patent publication US20080051429A1, “USE OF 4-AMINO-PIPERIDINES FOR TREATING SLEEP DISORDERS” (priority 2006, published 2008).

As for `CC(C)COc1ccc(CC(=O)N(Cc2ccc(F)cc2)C2CCN(CCC3OCCCO3)CC2)cc1` [Example 103NLS63-F, N-{1-[2-(1,3-Dioxan-2-yl)ethyl]piperidin-4-yl}-N-(4-fluorobenzyl)-2-(4-isobutoxyphenyl)acetamide, oxalate], the Emax (120 h, read-out: 5HT2A % INH) worked out at 101%. Moreover, the IC50 (read-out: 5HT2A pIC50 (converted)) was 0.316 nM.
